One data set in a line: in vivo. The settings on record: mouse, po. Here is the method:
The number of dead mice was counted after 7 days, and the value of median lethal dose (LD50, mg/kg) was calculated in accordance with the Behrens-Kaerber method.

For data set [1], the system named is Gram-positive and Gram-negative bacteria. The experiment in a line: in vivo therapeutic efficacy against systemic infections in mice (overall). The settings on record: particularly Pseudomonas aeruginosa. Also noted: species or system mice (ddY).

Counter-ions that a name gives are not always drawn.

The LD50 is the dose expected to kill half of the subjects tested. Higher therefore signals lower toxicity. The molecule `CC1(C)S[C@@H]2[C@H](NC(=O)C(C(=O)Oc3ccc4c(c3)CCC4)c3ccccc3)C(=O)N2[C@H]1C(=O)O` (stereo partly drawn) [G, α-(5-Indanyloxycarbonyl)benzylpenicillin sodium salt] showed a 50% lethal dose (LD50) at 168 h in “in vivo” of more than 4000 mg/kg. For the same molecule, in data set [1], the “therapeutic effects in vivo against Gram-negative bacteria, relative to compounds 1, 1' and 2” value is “clearly inferior”.

In “in vivo”, `CCn1cc(C(=O)O)c(=O)c2cnc(N3CCNCC3)nc21` [F, 8-Ethyl-5,8-dihydro-5-oxo-2-(1-piperazinyl)pyrido[2,3-d] pyrimidine-6-carboxylic acid] had a median lethal dose (LD50) at 168 h of more than 5000 mg/kg. Further, the “therapeutic effects in vivo against Gram-negative bacteria, relative to compounds 1, 1' and 2” value in data set [1] is on record as “clearly inferior”.

Source of the values: patent US4352803A, “Novel naphthyridine derivatives, intermediates thereof, processes for preparation thereof, and use thereof” (Dainippon Pharmaceutical Co., Ltd., priority 1978, dated 1982).
